Experimental data published in patent publication US4447437A, “Pharmaceutical composition and method for treatment of peptic ulcer” (priority 1981, dated 1984).

Experiment: Acute oral toxicity in rats
Conditions: rat, in vivo, Wistar rats, female, mortality at 7 days, Litchfield-Wilcoxon method

CN1CCC2=C(C1)c1ccccc1Cc1ccccc12 [MO-8282, 2-N-methyl-1,2,3,4-tetrahydro-9H-dibenzo[a,e]-pyridino[3,4-c]-cycloheptatriene]
LD50 at 168 h: 554 mg/kg
